The text below walks through data of patent publication US20220265842A1, “ANTI-CD40 ANTIBODY DRUG CONJUGATES” (priority 2017, published 2022).

This series in a line: Size exclusion chromatography (SEC): monomer / aggregation of ADC. The series is classed as physicochemical. As to conditions: purified DAR2 / DAR4 ADC fraction after AEC. Background: In gel filtration, larger molecules generally elute earlier.

B1: Example 4-conjugated (human) (n=2) (conjugate, listed as Homo sapiens)
heavy: MVRLPLQCVLWGCLLTAVHPEPPTACREKQYLINSQCCSLCQPGQKLVSDCTEFTETECLPCGESEFLDTWNRETHCHQHKYCDPNLGLRVQQKGTSETDTICTCEEGWHCTSEACESCVLHRSCSPGFGVKQIATGVSDTICEPCPVGFFSNVSSAFEKCHPWTSCETKDLVVQQAGTNKTDVVCGPQDRLRALVVIPIIFGILFAILLVLVFIKKVAKKPTNKAPHPKQEPQEINFPDDLPGSNTAAPVQETLHGCQPVTQEDGKESRISVQERQ
light: EPPTACREKQYLINSQCCSLCQPGQKLVSDCTEFTETECLPCGESEFLDTWNRETHCHQHKYCDPNLGLRVQQKGTSETDTICTCEEGWHCTSEACESCV
modifications: drug linker conjugated
For the molecule B1, the aggregation was 0%.
